Earlier results, collected in PMC4955782 (Archives of biochemistry and biophysics, 2016).

Test system: tubulin
Settings: reported by David et al.; cited from earlier work

COc1cc2c(c(OC)c1OC)-c1ccc(OC)c(=O)cc1[C@@H](NC(C)=O)CC2 [colchicine]
inhibition of (−)-rhazinilam aberrant assembly reaction: but not colchicine, inhibited
